# Measurements: PubChem BioAssay AID1724 (National Center for Advancing Translational Sciences (NCATS), 2009)
# The entries are a selection whose mix differs from that of the whole data set. Inconclusive results are not listed. Activity calls are given as the source filed them. Calls come from the whole dose curve; as a rule, active = well fitted inhibition curve with a large enough effect; inconclusive = small, poorly fitted or top-dose-only effect, or effect the other way; inactive = no such curve, though single readings can be large or run the other way.
# Assay: Confirmation Concentration-Response Assay for Inhibitors of the ERK Signaling Pathway using a Homogeneous Screening Assay
# Details: HEK293 cells, hormone-stimulated phospho-ERK AlphaScreen
# Source text: qHTS Assay for Inhibitors of the ERK Signaling Pathway using a Homogeneous Screening Assay
# NIH Chemical Genomics Center [NCGC]
# NIH Molecular Libraries Screening Centers Network [MLSCN]
# Assay Submitter (PI): Dr. Wei Zheng, NCGC/NIH
# The Ras/extracellular-signal-regulated kinase (ERK) mitogen activated protein (MAP) kinase signaling pathway (ERK1/2 cascade) plays is a key role in transmitting signals from the cell surface to the nucleus (Nishida and Gotoh 1993; Chang and Karin, 2001). The cascade is initiated by the small G-protein Ras, which recruits Raf […], where activation occurs. Alternatively, this pathway can be activated by elevating intracellular cAMP.
# Activation of the ERK pathway is essential in increased cell division and cell survival. […]
# HEK293 cells stably expressing type-1 vasopressin receptor (V1b) were maintained in DMEM medium (Invitrogen, Carlsbad, CA) at 37C under a humidified atmosphere containing 5% CO2 and 95% air. […] The ERK phosphorylation in cells was determined using an AlphaScreen assay kit provided by PerkinElmer. […] AC50 values were determined from concentration-response data modeled with the standard Hill equation. […]
# (10) Detect the assay plate in an EnVision plate reader (PerkinElmer) using the AlphaScreen detection mode. […]
smiles,measurement,value
COc1cccc(-c2cc(=O)c3ccccc3o2)c1N,Potency,active: 3.16 µM
